{"source": "patent US8486924B2", "about": "“Taxane delivery system” (Celator Pharmaceuticals, Inc., priority 2007, dated 2013)", "settings": "mouse, in vivo, iv", "data": [{"substance": "2′-O-(4″-O-tocopherylsuccinoyl)-paclitaxel [Prodrug 1]", "values": [{"measurement": "prodrug plasma clearance compared with 3H-CHE label", "value": "approximately the same rate"}]}]}
